{"source": "patent US20230165829A1", "about": "“FLAVAGLINE DERIVATIVES FOR INHIBITION OF KRAS ONCOGENE ACTIVATION” (KHR BIOTEC GMBH, priority 2018, published 2023)", "tested_on": "KRAS G12V", "test": "NanoBit assay of KRAS GTP-loading (KRAS / CRAF-RBD interaction) in HeLa cells", "conditions": "100 nM compounds for 4 h, KRAS G12V transfected HeLa cells; similar results with KRAS WT + EGF (100 ng/ml, 30 min)"}
{"smiles": "COc1cc(OC)c2c(c1)O[C@@]1(c3ccc(Br)cc3)[C@H](c3cccc(F)c3)C[C@H](NC=O)[C@@]21O", "values": [{"measurement": "inactivation of KRAS (inhibition of KRAS activation), relative luminescence vs DMSO", "value": "inactivation of KRAS"}]}
{"smiles": "COc1cc(OC)c2c(c1)O[C@@]1(c3ccc(Br)cc3)[C@H](c3ccccc3)C[C@H](NC=O)[C@@]21O", "values": [{"measurement": "inactivation of KRAS (inhibition of KRAS activation), relative luminescence vs DMSO", "value": "inactivation of KRAS"}]}
